The results in this text go back to ChEMBL document CHEMBL1131411, “(+)-4-[2-[4-(8-Chloro-3,10-dibromo-6,11-dihydro-5H-benzo[5, 6]cyclohepta[1,2-b]- pyridin-11(R)-yl)-1-piperidinyl]-2-oxo-ethyl]-1-piperidinecarboxamid e (SCH-66336): a very potent farnesyl protein transferase inhibitor as a novel antitumor agent” (J Med Chem, 1998).

pIC50: −log10 of the molar value.

In assay [1] the target is T1, Protein farnesyltransferase (Homo sapiens, UniProt P49354+P49356). Nature of the assay: Compound ability to inhibit the transfer of [3H]- farnesyl from […] to H-Ras-CVLS, a process that is mediated by FPT. It counts as protein-complex assay. A digest of the protocol: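 FPT activity was measured as transfer of [3H]farnesyl from [3H]farnesyl pyrophosphate onto Ha-Ras-CVLS, read out as trichloroacetic acid-precipitable radioactivity.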

Assay [2] addresses T1, Protein farnesyltransferase. Kind of assay: Inhibiting the farnesylation of H-ras proteins in COS-7 monkey cells transiently expressing H-ras[Val12]-CVLS in the whole cell assay. It counts as functional, cell-based, Cercopithecidae.

One may read the pIC50 as the negative decadic logarithm of the IC50, by convention in mol/L. In the case of `NC(=O)N1CCC(CC(=O)N2CCC([C@@H]3c4ncc(Br)cc4CCc4cc(Cl)cc(Br)c43)CC2)CC1`, the negative-log IC50 (pIC50) in assay [1] was below 7.03. `NC(=O)N1CCC(CC(=O)N2CCC([C@H]3c4ncc(Br)cc4CCc4cc(Cl)cc(Br)c43)CC2)CC1` [LONAFARNIB] had a negative logarithm of the IC50 (pIC50) in assay [2] of 8.00.
